From patent publication US8586579B2, “Anellated pyridine compounds” (Hoffmann-La Roche Inc., priority 2010, dated 2013)

By UniProt entry, the sequences of proteins in these tests, tags left out.
UniProt P35462, whole entry: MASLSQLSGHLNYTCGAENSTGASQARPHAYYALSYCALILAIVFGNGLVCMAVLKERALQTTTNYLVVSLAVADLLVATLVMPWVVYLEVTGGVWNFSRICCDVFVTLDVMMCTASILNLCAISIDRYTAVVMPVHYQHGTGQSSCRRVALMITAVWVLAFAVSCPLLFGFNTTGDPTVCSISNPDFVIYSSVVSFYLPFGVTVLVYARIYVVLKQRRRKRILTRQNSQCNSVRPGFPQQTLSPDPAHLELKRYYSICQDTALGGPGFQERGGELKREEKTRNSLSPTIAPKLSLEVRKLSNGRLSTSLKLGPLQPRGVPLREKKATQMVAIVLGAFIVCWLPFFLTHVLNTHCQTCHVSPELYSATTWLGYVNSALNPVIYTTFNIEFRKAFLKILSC
UniProt P14416, whole entry: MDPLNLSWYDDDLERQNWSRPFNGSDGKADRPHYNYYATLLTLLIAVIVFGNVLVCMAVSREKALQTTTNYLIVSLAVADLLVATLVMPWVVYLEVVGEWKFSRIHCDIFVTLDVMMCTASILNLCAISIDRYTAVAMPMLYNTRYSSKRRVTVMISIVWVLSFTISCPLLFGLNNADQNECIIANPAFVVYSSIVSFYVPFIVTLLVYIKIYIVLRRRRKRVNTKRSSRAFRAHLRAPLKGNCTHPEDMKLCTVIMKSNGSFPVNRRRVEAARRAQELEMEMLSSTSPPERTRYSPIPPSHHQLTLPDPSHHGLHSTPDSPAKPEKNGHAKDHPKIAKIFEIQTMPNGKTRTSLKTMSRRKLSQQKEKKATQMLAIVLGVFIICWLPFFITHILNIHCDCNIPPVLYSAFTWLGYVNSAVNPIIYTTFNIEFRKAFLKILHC
UniProt P28223, whole entry: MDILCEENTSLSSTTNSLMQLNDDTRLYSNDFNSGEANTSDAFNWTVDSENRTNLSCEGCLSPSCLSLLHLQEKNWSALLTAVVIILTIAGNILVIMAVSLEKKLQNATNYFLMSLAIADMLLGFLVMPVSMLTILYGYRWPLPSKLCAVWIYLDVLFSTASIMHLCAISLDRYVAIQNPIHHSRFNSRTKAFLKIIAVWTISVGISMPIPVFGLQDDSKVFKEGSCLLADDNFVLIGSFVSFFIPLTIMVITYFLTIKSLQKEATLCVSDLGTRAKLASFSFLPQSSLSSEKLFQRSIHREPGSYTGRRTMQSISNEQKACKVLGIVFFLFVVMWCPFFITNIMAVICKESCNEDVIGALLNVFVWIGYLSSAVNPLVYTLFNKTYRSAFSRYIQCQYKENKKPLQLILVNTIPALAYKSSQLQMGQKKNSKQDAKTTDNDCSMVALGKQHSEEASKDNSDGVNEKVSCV

Experiments:
[1] = molecular target: human D3 receptor (Homo sapiens (Human), UniProt P35462); test: Radioligand binding assay, [3H]-spiperone, human D3 receptor; conditions: membranes of HEK293 EBNA cells expressing human D3; 0.5 nM [3H]-spiperone
Procedure: (§1) HEK293 EBNA cells were transiently transfected with expression plasmids encoding for the human D2 or D3 or for the human 5-HT2A receptor, respectively. The cells were harvested 48 h post-transfection, washed three times with cold PBS and stored at −80° C. prior to use. The pellet was suspended in cold 50 mM Tris-HCl buffer comprising 10 mM EDTA (pH 7.4) and was homogenized with a Polytron (Kinematica AG, Basel, Switzerland) for 20-30 sec at 12.000 rpm. After centrifugation at 48.000×g for 30 min at 4° C., the pellet was resuspended in cold 10 mM Tris-HCl buffer comprising 0.1 mM EDTA (pH 7.4), homogenized, and centrifuged as above. […] The protein content of this homogenate was determined with the Bio-Rad (Bradford) Protein Assay (Biorad Laboratories GmbH, München, Germany) according to the instructions of the manufacturer using gamma globulin as the standard. […]
(§2) The binding affinity (Ki) of the compounds was determined using radioligand binding. […] The nonspecific binding was determined with equally composed reaction mixtures in the presence of 10 μM unlabelled spiperone. Per well 45 μl of Microscint 40 (Perkin Elmer, Schwerzenbach, Switzerland) was added, plates for sealed, shaken for 20 min and counted for 3 min on a Topcount Microplate Scintillation Counter (Can berra Packard SA, Zürich, Switzerland) with quenching correction. […]

[2] = molecular target: human D2 receptor (Homo sapiens (Human), UniProt P14416); test: Radioligand binding assay, [3H]-spiperone, human D2 receptor; conditions: membranes of HEK293 EBNA cells expressing human D2; 0.7 nM [3H]-spiperone
Procedure: HEK293 EBNA cells were transiently transfected with expression plasmids encoding for the human D2 or D3 or for the human 5-HT2A receptor, respectively. The cells were harvested 48 h post-transfection, washed three times with cold PBS and stored at −80° C. prior to use. The pellet was suspended in cold 50 mM Tris-HCl buffer comprising 10 mM EDTA (pH 7.4) and was homogenized with a Polytron (Kinematica AG, Basel, Switzerland) for 20-30 sec at 12.000 rpm. After centrifugation at 48.000×g for 30 min at 4° C., the pellet was resuspended in cold 10 mM Tris-HCl buffer comprising 0.1 mM EDTA (pH 7.4), homogenized, and centrifuged as above. This pellet was further resuspended in a smaller volume of ice cold 10 mM Tris-HCl buffer comprising 0.1 mM EDTA (pH 7.4) and homogenized with a Polytron for 20-30 sec at 12.000 rpm. The protein content of this homogenate was determined with the Bio-Rad (Bradford) Protein Assay (Biorad Laboratories GmbH, München, Germany) according to the instructions of the manufacturer using gamma globulin as the standard. This homogenate was stored at −80° C. in aliquots and thawed immediately prior to use. […]
The binding affinity (Ki) of the compounds was determined using radioligand binding. […] The nonspecific binding was determined with equally composed reaction mixtures in the presence of 10 μM unlabelled spiperone. Per well 45 μl of Microscint 40 (Perkin Elmer, Schwerzenbach, Switzerland) was added, plates for sealed, shaken for 20 min and counted for 3 min on a Topcount Microplate Scintillation Counter (Can berra Packard SA, Zürich, Switzerland) with quenching correction.
The CPM value for each duplicate of a concentration of competing compound was averaged (y1), then the % specific binding was calculated according to the equation (((y1−non-specific)/(total binding−non-specific))×100). […] The affinity constant (K) was calculated using the Cheng-Prusoff equation Ki=(IC50/1+([L]/Kd), where [L] is the concentration of radioligand and Kd is the dissociation constant of the radioligand at the receptor as determined by the saturation isotherm.

[3] = molecular target: human 5-HT2A receptor (Homo sapiens (Human), UniProt P28223); test: Radioligand binding assay, [3H]-ketanserin, human 5-HT2A receptor; conditions: membranes of HEK293 EBNA cells expressing human 5-HT2A; 1.1 nM [3H]-ketanserin
Procedure: as §1, §2

Ki [2] [nM]	Ki [3] [nM]	Compound	Ki [1] [nM]
767	6.37	O=C(N[C@H]1CC[C@H](CCN2CCN(c3nccc4c3CCO4)CC2)CC1)C1CCCOC1 (mixture of isomers) [Example 53, rac-Tetrahydro-pyran-3-carboxylic acid trans-(4-{2-[4-(2,3-dihydro-furo[3,2-c]pyridin-4-yl)-piperazin-1-yl]-ethyl}-cyclohexyl)-amide]	–
843	11.4	O=C(N[C@H]1CC[C@H](CCN2CCN(c3nccc4c3CCO4)CC2)CC1)C(O)C(F)(F)F (mixture of isomers) [Example 112, trans-(RS)—N-(4-{2-[4-(2,3-Dihydro-furo[3,2-c]pyridin-4-yl)-piperazin-1-yl]-ethyl}-cyclohexyl)-3,3,3-trifluoro-2-hydroxy-propionamide]	–

Compound	Ki [2] [nM]	Ki [3] [nM]	Ki [1] [nM]
O=C(N[C@H]1CC[C@H](CCN2CCN(c3nccc4c3CCO4)CC2)CC1)C1CCCO1 (mixture of isomers) [Example 43, trans-N-(4-{2-[4-(2,3-Dihydrofuro[3,2-c]pyridin-4-yl)-piperazin-1-yl]-ethyl}-cyclohexyl)-rac-tetrahydrofuran-2-carboxamide]	1040	–	120
